# Ab-14 light chain CDR variants: yeast mating affinities

Reference: Engelhart et al. 2022, doi:10.1038/s41597-022-01779-4. File: FLAb, binding data.

The target is the same throughout: PDVDLGDISGINAS, from the HR2 region of SARS-CoV-2 spike.

Parent: Ab-14, a human scFv built as VH, a (GGGGS)3 linker, VL. Only the CDRs of the light chain vary.
VH: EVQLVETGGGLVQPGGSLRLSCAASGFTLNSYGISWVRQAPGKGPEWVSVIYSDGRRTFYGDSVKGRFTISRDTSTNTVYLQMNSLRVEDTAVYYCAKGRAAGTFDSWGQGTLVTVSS
VL: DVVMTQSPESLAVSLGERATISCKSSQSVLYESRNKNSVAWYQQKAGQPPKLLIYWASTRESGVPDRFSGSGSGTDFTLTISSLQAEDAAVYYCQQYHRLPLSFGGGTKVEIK

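The starting antibody came from a phage panning campaign against this peptide. In library AAYL50, one, two or three CDR residues were substituted; doubles and triples were drawn at random. Affinity was read by AlphaSeq, a pooled yeast mating assay with surface-displayed partners. Mating (16 h, 30 °C) was followed by selection of diploids and sequencing of their barcodes. A regression on co-assayed BCL2-family reference pairs converts the normalised counts of each replicate to an apparent Kd. There are three technical replicates.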

Positions count from residue 1 of the parent VL; Y31K puts K in place of Y. Scale: log10 of Kd in nM, estimated from mating counts; low values are strong binders. A pair that was not seen in that replicate is written "ND"; this usually means weak binding, but a binder can also be missed.

| changes | replicates, log10 nM | empty controls |
|---|---|---|
| Y31K/T59S/S103H | ND ND ND | 1/9 (3.04) |
| N35R/A57L/L102Y | ND ND ND | 0/9 |
| S33Y/K36R/L100P | ND 3.57 ND | 2/9 (3.81) |
| S26V/A57Q/Q95L | ND ND ND | 1/9 (3.88) |
| L30V/E61T/L102C | 0.72 0.83 0.68 | 1/9 (5.78) |
| V29M/E32M/A40K | ND 3.17 ND | 0/9 |
| Q27E/A57L/Q95V | 4.44 ND ND | 2/9 (3.73) |
| Q95S/Y97F/P101G | ND ND ND | 1/9 (2.89) |
| S25G/N35K/V39M | 2.22 2.08 2.32 | 6/9 (4.93) |
| S58W/R60P/Y97H | ND 3.99 5.29 | 3/9 (4.77) |
| Q27G/R34P | 0.83 1.03 1.13 | 1/9 (3.41) |
| S25W/H98C/R99S | 2.21 2.16 2.59 | 2/9 (3.98) |
| V29K/H98K/P101Y | 3.38 4.58 ND | 1/9 (3.15) |
| W56G/R99H/L102C | 6.09 4.12 3.57 | 1/9 (4.40) |
| R60W/Q95S/Q96I | ND ND ND | 2/9 (3.31) |
| S25Q/N35Y/Q95H | ND ND ND | 0/9 |
| K24P/S38I/E61H | ND 3.49 ND | 0/9 |
| K24T/K36M/Q96I | 0.87 1.06 0.99 | 2/9 (4.59) |
| L30Q/Y31T/K36I | 0.67 0.92 0.98 | 0/9 |
| Q27S/T59R/R99T | 1.54 1.95 1.82 | 1/9 (4.10) |
| S26F/L100M | 1.99 1.79 1.73 | 1/9 (4.95) |
| T59N/Q96L/H98C | ND ND ND | 0/9 |
| N35H/T59F/R99E | 2.34 2.06 2.31 | 3/9 (3.31) |
| N35S/V39R/S103I | ND ND ND | 0/9 |
| V29L/V39L/S62C | 1.10 0.98 1.01 | 0/9 |
| S28I/L30W/S62V | 1.31 1.37 1.29 | 2/9 (4.23) |
| S33Y/K36W/S38Q | 2.40 2.33 1.93 | 0/9 |
| E61Y/R99K | ND ND ND | 0/9 |
| S26D/A40W/R60H | ND 4.05 ND | 4/9 (3.79) |
| S33Q/K36F/Q96T | 2.50 2.67 3.82 | 0/9 |
| S28H/A57I/Q96Y | ND ND ND | 0/9 |
| S38Y/A40S/R99V | ND 5.47 4.32 | 4/9 (4.62) |
| S28G/L30R/S38C | 2.81 3.05 3.44 | 3/9 (3.37) |
| S25I/S26H/Q27A | ND 4.58 ND | 0/9 |
| S38E/A40N/Q95F | 4.35 4.52 ND | 4/9 (4.92) |
| E32F/P101I/L102P | 2.63 1.75 1.90 | 1/9 (4.58) |
| S26Q/H98V/P101Q | 1.51 1.30 1.27 | 0/9 |
| A57K/E61I/S103P | ND ND ND | 0/9 |
| S58K/T59Y/H98M | 0.98 1.13 1.11 | 1/9 (4.49) |
| S25E/R60G/S103L | ND 3.67 ND | 2/9 (4.66) |
| T59E/E61R/Q96M | 4.15 4.54 3.98 | 3/9 (4.82) |
| N37M/R60Y/S62H | ND ND ND | 0/9 |
| V29N/E32R | 2.36 2.06 2.61 | 2/9 (4.24) |
| N37V/S38Y/A40T | ND ND ND | 1/9 (3.17) |
| N35Q/T59P/Y97F | ND ND ND | 1/9 (4.61) |
| Q27N/Y31A/E61Q | 4.95 4.90 ND | 5/9 (4.19) |
| N35D/W56C/S58G | 1.03 1.16 1.23 | 2/9 (3.67) |
| S25A/R60G/S62D | 3.39 2.70 3.38 | 2/9 (4.72) |
| P101A | 2.00 2.29 0.51 | 0/9 |
| Y31C/Y97D | ND ND 3.57 | 3/9 (4.25) |
| A40E/R60G/S103T | ND ND ND | 1/9 (4.85) |

Excerpt, the first 6 entries:

| changes | replicates, log10 nM | empty controls |
|---|---|---|
| Y31K/T59S/S103H | ND ND ND | 1/9 (3.04) |
| N35R/A57L/L102Y | ND ND ND | 0/9 |
| S33Y/K36R/L100P | ND 3.57 ND | 2/9 (3.81) |
| S26V/A57Q/Q95L | ND ND ND | 1/9 (3.88) |
| L30V/E61T/L102C | 0.72 0.83 0.68 | 1/9 (5.78) |
| V29M/E32M/A40K | ND 3.17 ND | 0/9 |

As a blank, each scFv also met three strains without target: over library AAYL50, 18% of these pairings were detected, typically at 4.19 and seldom below 2.99. Also given: how often the same scFv was detected with the empty control strains, with their mean in brackets.